Patent publication US20030153073A1, “Expansion of T cells in vitro and expanded T cell populations” (priority 2001, published 2003)

How the values were obtained:
[1] = tested on: Vα24^+Vβ11^+ T cells; conditions: donor 9 PBMC
[2] = tested on: CD3^+hCD1d/KRN7000 Tetramer^+ T cells; assay: Expansion of CD3+ hCD1d/KRN7000 Tetramer+ T cells in PBMC culture, 7 days; assay type: cell-based, human
Description: PBMC (1×10^6/ml) were cultured with KRN7000 alone (100 ng/ml), rhIL-2 alone, or with 100 ng/ml of KRN7000 plus 10 ng/ml rhIL-2 or 100 ng/ml rhIL-15 for 7 days. Percentage of CD3^+Tetramer^+ cells was determined by flow cytometry using antibody to CD3 and hCD1d/KRN7000 Tetramer. […] The number of Tetramer^+ cells was determined by multiplying the percentage of CD3 ^+Tetramer^+ cells by the number of cells recovered.

[3] = tested on: PBMC; assay: Proliferation of PBMCs, [3H]-thymidine incorporation; assay type: cell-based, human; conditions: donor 9 PBMC, 5 days, tritiated thymidine incorporation
Description: Proliferation of PBMCs was measured in triplicate in 96-well flat-bottomed plates with 2×10^5 cells/well (0.2 ml). Cells were cultured for 5 days and pulsed with [^3H]-thymidine (1 μCi/well, ICN Pharmaceuticals, Irvine, Calif.) for the last 12 hours.
One of 5 representative donors is shown.

## IL-2 only: recombinant human interleukin-2
[1]; 7 days, flow cytometry
  Percentage of Vα24/Vβ11 cells: 0.20%
[1]; day 7, cell recovery × percentage
  Number of Vα24Vβ11 cells: 2,020
[2]; PBMC 1×10^6/ml, 7 days, KRN7000 100 ng/ml, rhIL-2 10 ng/ml, rhIL-15 100 ng/ml, flow cytometry
  % CD^3+ Tetramer^+ cells: 0.28%
[2]; percentage × cells recovered, day 7
  number of Tetramer^+ cells: 1,988
[3]
  Proliferation, cpm: 30,233 cpm
